Results on 6 molecules are retold here after patent US10570150B2, “6,7-trans cephalosporin-based probes for detecting bacteria expressing a metallo-beta-lactamase” (priority 2014, dated 2020).

The test system of one assay is E. coli with IMP-1. To be noted: IMP-1-expressing bacteria, 10^4 to 10^6 c.f.u. (>=10^5 c.f.u. for (s)-CC-1, (s)-CC-5); probe 10 μM, 2 h.
The test system of assay [1] is K. pneumoniae with VIM-27. The following applies: VIM-27-expressing bacteria, 10^4 to 10^6 c.f.u. (>=10^5 c.f.u. for (s)-CC-1, (s)-CC-5); probe 10 μM, 2 h.
A further assay relates to E. coli with NDM-1. The following applies: NDM-1-expressing bacteria, 10^4 to 10^6 c.f.u. (>=10^5 c.f.u. for (s)-CC-1, (s)-CC-5); probe 10 μM, 2 h.
The test system of another assay is K. pneumoniae with KPC-3. The assay can be described thus: Fluorescence response of probes to live KPC-3-expressing bacteria. The following applies: 10^4 to 10^6 c.f.u. (>=10^5 c.f.u. for (s)-CC-1, (s)-CC-5), probe 10 μM, 2 h.
The subject of assay [2] is Eleven bacteria strains that produced carbapenemases or other clinically prevalent β-lactamases. The assay can be described thus: Fluorescence response to the panel of eleven β-lactamase-producing live bacteria strains. The following applies: 10^4 to 10^6 c.f.u., probe 10 μM, 2 h.

With `CC(C)O[C@H]1C(=O)N2C(C(=O)O)=C(COc3ccc4ccc(=O)oc4c3)CS[C@H]12` [(s)-CC-3, (6R,7S)-7-isopropoxy-8-oxo-3-(((2-oxo-2H-chromen-7-yl)oxy)methyl)-5-thia-1-azabicyclo[4.2.0]oct-2-ene-2-carboxylic Acid], the “fluorescence response to live bacteria” value (in the assay with E. coli with IMP-1; in assay [1]; in the assay on E. coli with NDM-1) was “intense fluorescence responses” each time.
Take `CC(C)(C)O[C@H]1C(=O)N2C(C(=O)O)=C(COc3ccc4ccc(=O)oc4c3)CS[C@H]12` [(s)-CC-4, (6R,7S)-7-(tert-butoxy)-8-oxo-3-(((2-oxo-2H-chromen-7-yl)oxy)methyl)-5-thia-1-azabicyclo[4.2.0]oct-2-ene-2-carboxylic Acid]: the “fluorescence response to live bacteria” value in the assay with E. coli with IMP-1 was “specific preference for IMP-producing strains”.
Consider `CO[C@H]1C(=O)N2C(C(=O)O)=C(COc3ccc4ccc(=O)oc4c3)CS[C@H]12` [(s)-CC-1, (6R,7S)-7-methoxy-8-oxo-3-(((2-oxo-2H-chromen-7-yl)oxy)methyl)-5-thia-1-azabicyclo[4.2.0.]oct-2-ene-2-carboxylic Acid], for which the “fluorescence response to live bacteria” value (with E. coli with IMP-1; in assay [1]; in the assay on K. pneumoniae with KPC-3; in the assay on E. coli with NDM-1) was “high fluorescence enhancement” throughout.
For `Cc1ccc(S(=O)(=O)O[C@H]2C(=O)N3C(C(=O)O)=C(COc4ccc5ccc(=O)oc5c4)CS[C@H]23)cc1` [(s)-CC-6, (6R,7S)-8-oxo-3-(((2-oxo-2H-chromen-7-yl)oxy)methyl)-7-(tosyloxy)-5-thia-1-azabicyclo[4.2.0]oct-2-ene-2-carboxylic Acid], the “fluorescence response to live bacteria” value (in the assay with E. coli with IMP-1; in assay [1]; with E. coli with NDM-1) was “intense fluorescence responses” throughout.
For the molecule `O=C(O)C1=C(COc2ccc3ccc(=O)oc3c2)CS[C@@H]2[C@@H](OCc3ccccc3)C(=O)N12` [(s)-CC-5, (6R,7S)-7-(benzyloxy)-8-oxo-3-(((2-oxo-2H-chromen-7-yl)oxy)methyl)-5-thia-1-azabicyclo[4.2.0]oct-2-ene-2-carboxylic Acid], the “fluorescence response to live bacteria” value (in the assay with E. coli with IMP-1; in assay [1]; with K. pneumoniae with KPC-3; in the assay with E. coli with NDM-1) was “high fluorescence enhancement” each time.
With `O=C(Cc1ccccc1)N[C@@H]1C(=O)N2C(C(=O)O)=C(COc3ccc4ccc(=O)oc4c3)CS[C@H]12` [CDC-1, reference compound], the “fluorescence response to all bacteria strains” value in assay [2] is recorded as “consistently positive”.
